Assay results: patent publication US9855268B2, “Triazolo[4,5-d]pyrimidine derivatives” (Merck Patent GmbH, priority 2013, dated 2018)

The chains behind the UniProt entries cited, without tags or fusion partners.
UniProt Q9P2K8, whole entry: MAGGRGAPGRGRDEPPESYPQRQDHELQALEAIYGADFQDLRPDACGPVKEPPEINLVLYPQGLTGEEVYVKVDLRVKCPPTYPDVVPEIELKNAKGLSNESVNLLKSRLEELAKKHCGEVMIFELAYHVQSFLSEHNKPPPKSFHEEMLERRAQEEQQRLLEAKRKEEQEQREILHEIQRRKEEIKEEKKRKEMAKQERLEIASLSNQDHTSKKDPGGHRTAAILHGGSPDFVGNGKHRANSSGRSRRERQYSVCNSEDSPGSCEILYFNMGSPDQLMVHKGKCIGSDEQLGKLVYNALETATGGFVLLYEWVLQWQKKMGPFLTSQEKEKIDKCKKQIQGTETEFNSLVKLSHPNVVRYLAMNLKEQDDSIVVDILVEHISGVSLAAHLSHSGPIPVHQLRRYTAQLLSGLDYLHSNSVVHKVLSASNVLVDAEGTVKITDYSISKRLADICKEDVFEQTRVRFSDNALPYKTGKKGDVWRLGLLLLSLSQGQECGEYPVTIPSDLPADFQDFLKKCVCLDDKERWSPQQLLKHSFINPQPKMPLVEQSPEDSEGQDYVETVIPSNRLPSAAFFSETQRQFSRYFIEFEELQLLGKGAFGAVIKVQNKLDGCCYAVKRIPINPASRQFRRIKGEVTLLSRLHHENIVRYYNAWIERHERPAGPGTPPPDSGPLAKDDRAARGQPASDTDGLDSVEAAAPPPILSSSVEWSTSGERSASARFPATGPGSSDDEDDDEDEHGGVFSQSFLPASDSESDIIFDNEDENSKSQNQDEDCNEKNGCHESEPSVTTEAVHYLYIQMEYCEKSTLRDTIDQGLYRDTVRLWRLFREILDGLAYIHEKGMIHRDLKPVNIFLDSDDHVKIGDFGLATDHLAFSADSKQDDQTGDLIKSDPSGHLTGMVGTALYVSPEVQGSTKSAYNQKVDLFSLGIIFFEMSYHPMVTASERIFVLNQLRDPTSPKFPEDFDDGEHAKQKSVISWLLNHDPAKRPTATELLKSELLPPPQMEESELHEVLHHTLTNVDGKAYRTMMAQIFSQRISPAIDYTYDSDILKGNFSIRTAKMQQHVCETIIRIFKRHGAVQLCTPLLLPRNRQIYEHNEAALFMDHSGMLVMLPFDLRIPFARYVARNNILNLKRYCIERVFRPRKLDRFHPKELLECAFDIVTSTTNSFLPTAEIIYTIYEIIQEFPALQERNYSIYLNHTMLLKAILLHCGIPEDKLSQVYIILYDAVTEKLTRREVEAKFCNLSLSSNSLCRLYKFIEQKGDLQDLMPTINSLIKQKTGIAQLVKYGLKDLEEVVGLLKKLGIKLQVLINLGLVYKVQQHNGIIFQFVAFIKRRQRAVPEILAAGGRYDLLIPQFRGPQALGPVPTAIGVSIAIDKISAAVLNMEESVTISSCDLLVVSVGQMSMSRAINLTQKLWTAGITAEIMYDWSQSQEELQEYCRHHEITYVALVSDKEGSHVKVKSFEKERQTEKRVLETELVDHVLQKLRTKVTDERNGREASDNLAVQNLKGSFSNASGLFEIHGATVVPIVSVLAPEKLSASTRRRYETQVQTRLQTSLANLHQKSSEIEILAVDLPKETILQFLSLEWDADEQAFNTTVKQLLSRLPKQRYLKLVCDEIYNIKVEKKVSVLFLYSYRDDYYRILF

Target: GCN2 (Homo sapiens, UniProt Q9P2K8)
Assay: GCN2 enzyme assay (TR-FRET Lanthascreen, GFP-eIF2alpha phosphorylation)
Format: biochemical
Settings: read-out: IC50 GCN2 (enzyme assay); 10 μM ATP, 80 nM GFP-eIF2a, 30 nM GCN2

`COc1ccc(-n2nnc3cnc(NC4CCC(O)C4)nc32)cc1` (single isomer, unassigned) was tested, and the IC50 was < 1000 nM.
